This series concerns the target human AHR (Homo sapiens, UniProt P35869). Kind of series: Human AHR agonist luciferase assay (CYP1A1 promoter Nano-luc reporter in HepG2 cells).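 Further: stably transfected HepG2 clone, DRE-containing 1200 bp promoter region driving Nano-luc, treated 4 to 24 h with 11-point dilutions in tryptophan-free medium, medium-only wells as baseline.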 Conditions: read-out: HepG2 EC50; AHR activation, human hepatoma HepG2 reporter cells, incubated 4 to 24 hours.

Protein sequences, listed by entry. Tags and fused reporters are not part of them. Residues count along the entry.
UniProt P35869, 11-848 limits assumed: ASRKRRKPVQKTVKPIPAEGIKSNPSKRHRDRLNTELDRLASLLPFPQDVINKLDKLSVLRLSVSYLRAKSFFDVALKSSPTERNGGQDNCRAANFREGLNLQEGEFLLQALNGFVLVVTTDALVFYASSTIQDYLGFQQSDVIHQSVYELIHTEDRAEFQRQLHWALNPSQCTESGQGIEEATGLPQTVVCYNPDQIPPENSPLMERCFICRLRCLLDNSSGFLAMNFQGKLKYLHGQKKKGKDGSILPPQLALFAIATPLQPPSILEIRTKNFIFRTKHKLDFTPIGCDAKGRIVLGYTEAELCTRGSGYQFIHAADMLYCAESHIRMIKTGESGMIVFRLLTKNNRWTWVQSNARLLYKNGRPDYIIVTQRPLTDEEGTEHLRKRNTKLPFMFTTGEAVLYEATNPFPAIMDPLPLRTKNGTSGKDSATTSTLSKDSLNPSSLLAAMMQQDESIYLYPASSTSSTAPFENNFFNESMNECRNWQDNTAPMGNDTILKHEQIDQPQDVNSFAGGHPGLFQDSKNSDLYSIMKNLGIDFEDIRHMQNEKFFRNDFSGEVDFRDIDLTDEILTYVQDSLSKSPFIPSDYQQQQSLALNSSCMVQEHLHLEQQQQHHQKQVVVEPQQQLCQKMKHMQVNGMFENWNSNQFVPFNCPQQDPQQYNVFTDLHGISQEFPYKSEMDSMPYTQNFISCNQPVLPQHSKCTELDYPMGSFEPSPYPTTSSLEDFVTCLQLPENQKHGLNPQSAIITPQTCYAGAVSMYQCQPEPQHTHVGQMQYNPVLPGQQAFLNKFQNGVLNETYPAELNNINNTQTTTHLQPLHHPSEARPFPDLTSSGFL

The EC50 is the concentration needed to bring the measured effect to its halfway point.

SMILES strings stand for the structures. Some results are limits rather than exact numbers.

Consider `COc1ccc2[nH]cc(C(=O)c3nc(C4(Cl)CCOC4=O)cs3)c2c1` (stereo not shown), for which the EC50 was below 0.5 µM.
